# Source: PubChem BioAssay
# uPA surface inh = blocks generation of uPA at the cell surface | Potency, µM (series often up to 38.3 µM), usual class: inhibitors | cell surface uPA generation assay, qHTS | AID 540303 | 330,000 tested, 0.31% active; active means well fitted inhibition curve with a large enough effect; inconclusive means small, poorly fitted or top-dose-only effect; inactive means no such curve, though single readings can be large or run the other way; tested in mouse RAW 264.7 cells; further: nearly all actives have a fitted effect of over 55% in size
# DT40 TDP1 CPT = DT40-hTDP1 cell growth loss with CPT. chicken DT40 Tdp1-/-;hTDP1 cells + 20 nM CPT, ATP luminescence, 48 h. Potency, µM (top dose mostly 46.2 µM), usual class: inhibitors. AID 686979. 420,000 tested, 12% active; further: nearly all actives have a fitted effect of over 55% in size
#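 Chicken DT40 Tdp1-/- cells stably complemented with human TDP1 were seeded at 400 cells/well in medium containing 20 nM camptothecin, exposed to pin-transferred compounds, and grown at 37 °C for at least 48 hr. Viability was read as ATP luminescence.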
# DT40 TDP1 no CPT = qHTS for Inhibitors of human tyrosyl-DNA phosphodiesterase 1 (TDP1): qHTS in cells in absence of CPT; DT40 Tdp1-/- hTDP1 cells, no CPT, ATP luminescence, 48 h; Potency, µM (titrated, usually from 46.2 µM), most hits filed as inhibitors; 420,000 tested, 15% active; AID 686978, 2013; further: nearly all actives have a fitted effect of over 55% in size
#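 No-CPT arm: Tdp1-/-;hTDP1 DT40 cells (400/well) plus compounds, incubated ≥48 hr at 37 °C. Readout CellTiter-Glo luminescence.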
# TDP1 block = inhibitors of human tyrosyl-DNA phosphodiesterase TDP1 | recombinant TDP1, AlphaScreen DNA substrate cleavage | Potency, µM (titrated, usually from 130 µM), actives largely listed as inhibitors | 350,000 tested, 0.28% active | AID 485290; further: nearly all actives have a fitted effect of over 40% in size
#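 Recombinant E. coli-expressed Tdp1 (1 nM) preincubated with compound 15 min at RT, then 5'-biotin/3'-phosphotyrosine-FITC DNA substrate (15 nM) added for 5 min. AlphaScreen beads (10 ug/ml) added, 10 min RT; tyrosine-FITC cleavage read as signal loss.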
# miR-21 FLuc = miR-21 reporter, rising signal. HeLa miR-21 FLuc reporter, luciferase, 48 h. Potency, µM (highest dose often 38.3 µM). 340,000 tested, under 10 active. AID 2288; active = well fitted rising curve with a large enough effect; inconclusive = small, poorly fitted or top-dose-only effect; inactive = no such curve, though single readings can be large or run the other way;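 further: miR-21 action dims this reporter so a rising signal means less miR-21 action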
#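 Luminescence from a firefly luciferase reporter carrying a miR-21 binding site downstream, stably expressed under a CMV promoter in HeLa cells that make miR-21 endogenously, reports miRNA modulation after 48 h compound exposure up to approximately 40uM final.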
# A number is an active result; i = inactive; ? = inconclusive; nt = no result. A selection: hits, their analogues and other compounds. The true share with any hit is near 16%. Unless noted, the call rests on the fitted dose curve; in most records, active means well fitted curve in the direction sought with a large enough effect; inconclusive means small, poorly fitted or top-dose-only effect, or another doubt; inactive means no such curve, though single readings can be large; an effect the other way counts as inactive or inconclusive.
SMILES,uPA surface inh,DT40 TDP1 CPT,DT40 TDP1 no CPT,TDP1 block,miR-21 FLuc
COc1cccc(C(=O)N(Cc2ccc(N(C)C)cc2)Cc2ccco2)c1,nt,?,?,i,i
C[C@H](CCCC/C=C/C(=O)O)O[C@@H]1O[C@@H](C)[C@H](O)C[C@H]1O,i,i,i,i,nt
CCOC(=O)c1sc(NC(=O)c2nc3nc(C)cc(C(F)F)n3n2)c(C(=O)OC(C)C)c1C,nt,i,i,i,i
CCSc1ncc(Cl)c(C(=O)Nc2ccccc2F)n1,i,i,i,i,i
CCSc1ncc(Cl)c(C(=O)N(Cc2ccc(N(C)C)cc2)Cc2ccco2)n1,nt,?,21µM,i,i
CN(C)CCCNC(=O)OC1CC2CC1[C@H]1CCCCN1C2=O (stereo not given in full),nt,i,i,nt,nt
CN(C)CCNc1ccc(-c2nn(C)c(=O)c3ccccc23)cc1[N+](=O)[O-],i,?,23µM,i,i
CN(C)CCCNc1ccc(-c2n[nH]c(=O)c3ccccc23)cc1[N+](=O)[O-],i,10µM,23µM,nt,i
CC(O)CNc1ccc(-c2n[nH]c(=O)c3ccccc23)cc1[N+](=O)[O-] (stereo not given),i,?,?,nt,i
CN(CCO)c1ccc(-c2nn(C)c(=O)c3ccccc23)cc1[N+](=O)[O-],i,?,8.2µM,i,i
O=C1C2C(C(=O)N1Cc1cccnc1)C1C=CC2C12CC2 (stereo not given),i,i,i,i,i
C/C(=N\NC(=S)Nc1c(C)cccc1C)c1ccc(O)cc1,i,16µM,?,i,i
C/C(=N\NC(=O)c1ccco1)c1cc2ccccc2o1,i,i,?,i,i
C/C(=N\NC(=S)Nc1c(C)cccc1C)c1cc2ccccc2o1,i,3.3µM,2.1µM,i,i
C/C(=N\NC(=S)Nc1ccccc1C)c1cc2ccccc2o1,i,4.1µM,5.2µM,nt,i
CC(=O)Nc1cccc(/C(C)=N/NC(=O)c2ccc(O)cc2)c1,i,i,i,i,i
O=C1NCCC/C1=N/Nc1ccc(F)cc1,i,i,i,i,i
COc1ccc(-c2noc(CCC(=O)N3CCN(c4ccccc4Cl)CC3)n2)cc1,i,i,i,i,nt
COc1ccc(C(=O)/C=C/c2ccc(O)cc2)c(O)c1CC=C(C)C,i,13µM,?,i,i
COc1ccc(C(=O)/C=C/c2ccc(O)cc2)c2c1CC(O)C(C)(C)O2 (stereo not given),i,?,16µM,i,nt
COc1ccc(C(=O)Nc2nnc(SCC(=O)NC3CC3)s2)cc1,i,i,i,i,i
O=C(C[n+]1ccccc1)Nc1cc(C(F)(F)F)ccc1Cl,i,i,i,i,i
O=C(C[n+]1ccc2ccccc2c1)Nc1cc(C(F)(F)F)ccc1Cl,i,21µM,?,i,i
CN(C)c1cc[n+](CC(=O)Nc2cc(C(F)(F)F)ccc2Cl)cc1,i,16µM,8.2µM,i,i
O=C(NC1CCCCC1)C(c1ccc(C(F)(F)F)cc1)n1c(=O)c(-c2ccccc2)nc2ccccc21 (stereo not given),nt,?,13µM,nt,nt
SMILES,uPA surface inh,DT40 TDP1 CPT,DT40 TDP1 no CPT,TDP1 block,miR-21 FLuc
CC(C)(C)NC(=O)C(c1ccncc1)n1c(=O)c(-c2ccccc2)nc2ccccc21 (stereo not given),nt,i,i,nt,nt
CC(C)(C)NC(=O)C(c1ccc(C(F)(F)F)cc1)n1c(=O)c(-c2ccccc2)nc2ccccc21 (stereo not given),nt,18µM,?,nt,nt
O=C(NC1CCCCC1)C(CCc1ccccc1)n1c(=O)c(-c2ccccc2)nc2ccccc21 (stereo not given),nt,?,i,nt,nt
O=C(NC1CCCC1)C(c1ccccc1)n1c(Cc2cc(F)cc(F)c2)nc2ccccc21 (stereo not given),nt,18µM,?,nt,nt
CN(C)C(=O)Cn1c(SCC(=O)NC2CCCCC2)nc2ccccc21,i,i,i,i,i
Cc1ccc(OCc2nc3ccccc3n2C(C(=O)NC(C)(C)C)c2ccncc2)cc1 (stereo not given),nt,i,i,nt,nt
COc1ccc(C(C(=O)NC(C)(C)C)n2c(-c3ccc(C(F)(F)F)cc3)nc3ccccc32)cc1 (stereo not given),nt,16µM,?,nt,nt
Cc1cccc(C)c1NC(=O)C(C1CC1)n1c(-c2ccc(C(F)(F)F)cc2)nc2ccccc21 (stereo not given),nt,?,18µM,nt,nt
Cc1c(C(C)C)c(=O)n(-c2ccc(S(=O)(=O)NC3CC3)cc2)n1C,i,i,10µM,i,i
Cc1c(C(C)C)c(=O)n(-c2ccc(S(=O)(=O)NC(C)C)cc2)n1C,i,?,13µM,i,i
COc1ccc(NS(=O)(=O)c2ccc3c(c2)CCO3)cc1,i,i,?,i,i
Cc1ccc(C(=O)N2CCCC2)cc1Br,i,i,i,i,i
Cc1ccc(Cl)cc1NC(=O)CSCc1cnn(-c2ccccc2)c1-n1cccc1,nt,16µM,16µM,i,i
CC(C)CCNC(=O)CSCc1cnn(-c2ccccc2)c1-n1cccc1,nt,21µM,21µM,i,i
O=C(CCSCc1cnn(-c2ccccc2)c1-n1cccc1)NCc1ccccc1Cl,nt,18µM,?,i,i
Cc1cccc(CNC(=O)CSCc2cnn(-c3ccccc3)c2-n2cccc2)c1,nt,?,?,i,i
CNC(=O)CSCc1cnn(-c2ccccc2)c1-n1cccc1,nt,i,i,i,i
Cc1ccc(NC(=O)CSCc2cnn(-c3ccccc3)c2-n2cccc2)c(C)c1,nt,?,16µM,i,?
CCc1ccc(/C=C/C(=O)c2cc(Br)ccc(=O)c2O)cc1,i,3.3µM,5.2µM,i,i
Cc1cccc(/C=C/C(=O)c2cc(Br)ccc(=O)c2O)c1,i,3.3µM,3.3µM,i,?
CCOc1ccc(/C=C/C(=O)c2cc(Br)ccc(=O)c2O)cc1,i,4.6µM,3.7µM,i,?
COc1cc(/C=C/C(=O)OCC(=O)N2CCc3ccccc3C2)ccc1O,i,?,?,i,i
Cc1cc(=O)n2c(n1)NC(Nc1cccc(C)c1C)=NC2c1ccc(F)cc1 (stereo not given),i,i,i,i,i
CS(=O)(=O)c1sc(C#N)c2c1C(=O)CC(c1ccccc1)C2 (stereo not given),8.9µM,0.52µM,0.52µM,i,?
Cc1ccc(NC(=O)N(Cc2cn(C)c3ccccc23)C2CCCCC2)cc1C,nt,5.8µM,5.2µM,i,i
COc1cccc(NC(=O)N(Cc2cn(C)c3ccccc23)C2CCCCC2)c1,nt,4.1µM,7.3µM,i,i
CC(=O)N1CCC(N(C(=O)Nc2ccc(C)c(C)c2)C2CCCC2)CC1,i,i,i,i,i
CC1CC(C)CN(C(=O)c2cn(C)c3ccc(S(=O)(=O)N(C)C)cc3c2=O)C1 (stereo not given),i,i,i,i,i
COc1cc2[nH]c(C(=O)N3CCc4ccccc4C3)cc2c(OC)c1OC,i,?,15µM,i,i
